# In paper PMC10539329, “NLRP6 potentiates PI3K/AKT signalling by promoting autophagic degradation of p85α to drive tumorigenesis” (Nature Communications, 2023):
# Biological target: T1, recombinant NLRP6 (Homo sapiens, UniProt P59044)
# T1 construct: DNA encoding full-length NLRP6 was codon optimized; His (N); MBP (N); made in house; host or cells: E. coli (DE3)
# T1 sequence (P59044 1-892): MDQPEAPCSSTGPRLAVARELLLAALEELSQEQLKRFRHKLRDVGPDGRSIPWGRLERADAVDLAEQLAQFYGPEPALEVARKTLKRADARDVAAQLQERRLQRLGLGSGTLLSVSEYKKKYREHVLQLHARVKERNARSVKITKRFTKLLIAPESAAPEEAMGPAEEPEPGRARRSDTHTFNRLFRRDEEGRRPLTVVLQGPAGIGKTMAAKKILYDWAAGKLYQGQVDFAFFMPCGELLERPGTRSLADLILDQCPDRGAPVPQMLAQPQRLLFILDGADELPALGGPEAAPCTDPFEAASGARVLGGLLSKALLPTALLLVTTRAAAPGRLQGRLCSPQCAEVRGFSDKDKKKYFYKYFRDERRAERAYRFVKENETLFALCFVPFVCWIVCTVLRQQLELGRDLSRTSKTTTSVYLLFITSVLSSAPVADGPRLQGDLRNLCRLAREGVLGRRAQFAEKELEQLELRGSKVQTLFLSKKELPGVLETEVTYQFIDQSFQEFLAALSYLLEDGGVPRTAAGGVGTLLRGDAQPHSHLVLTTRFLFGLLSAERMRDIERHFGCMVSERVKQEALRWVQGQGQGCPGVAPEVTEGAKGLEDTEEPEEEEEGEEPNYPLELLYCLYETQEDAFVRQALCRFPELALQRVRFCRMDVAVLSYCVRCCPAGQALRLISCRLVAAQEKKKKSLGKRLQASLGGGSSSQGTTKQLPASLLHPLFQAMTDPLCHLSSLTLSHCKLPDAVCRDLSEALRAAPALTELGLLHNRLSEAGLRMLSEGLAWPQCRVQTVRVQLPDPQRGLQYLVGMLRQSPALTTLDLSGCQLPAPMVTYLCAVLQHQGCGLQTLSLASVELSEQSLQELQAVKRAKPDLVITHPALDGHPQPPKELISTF
# Assay: Biolayer interferometry (BLI) binding of peptides to recombinant NLRP6
# Settings: 30 °C, PBS with 0.01% Tween-20
# Method: DNA encoding full-length NLRP6 was codon optimized and chemically synthesized by Genewiz (Soochow, China). The DNA sequence was subcloned into NdeI-XhoI sites of a pDB-His-MBP vector (kindly given by Pro. Chenggui Han, China Agricultural University, Beijing, China). Recombinant NLRP6 protein was expressed and purified following previous reports, with slight modifications. Briefly, the protein was expressed in E. coli (DE3) at 16 °C with 0.5 mM IPTG induction overnight. Then, the protein was purified by Ni affinity and gel filtration chromatography. The p85α WT and p85α mutant sequences were chemically synthesized and subcloned into BamHI-XhoI sites of a pGEX-6P-1 plasmid by GenScript (Nanjing, China). The E. coli (DE3) transformed with the plasmids were grown in LB medium at 37 °C. The culture medium was supplemented with 0.5 mM IPTG followed by incubation at 16 °C for 16–18 h. […] The protein extinction coefficient was calculated by ProtParam, and the protein concentration was determined by the ultraviolet spectrophotometry method.
# Eleven α-helical peptides were synthesized (Supplementary Data 7). […] The interaction between the peptides and NLRP6 was determined by BLI using an Octet Red 96 instrument (FortéBio, CA, USA). […] Responses (nanometre shift) were calculated using data that were double reference subtracted using reference wells and nonspecific binding of the biosensor to the analyte. […]
structure (smiles),measurement,value
CC[C@H](C)[C@H](NC(=O)[C@H](C)NC(=O)[C@H](CCC(=O)O)NC(=O)[C@@H](NC(=O)[C@H](CC(C)C)NC(=O)[C@H](CCCCN)NC(=O)[C@@H](NC(=O)[C@H](CC(C)C)NC(=O)[C@H](CC(C)C)NC(=O)[C@@H]1CCCN1C(=O)[C@@H]1CCCN1)[C@@H](C)CC)C(C)C)C(=O)N[C@@H](CCC(=O)O)C(=O)N[C@@H](CCCCN)C(=O)N[C@@H](CCCCN)C(=O)NCC(=O)O [Pep4],binding to NLRP6 (in words),could bind with NLRP6
